The text below walks through data of patent US12145911B2, “Inhibitors of cysteine proteases and methods of use thereof” (priority 2020, dated 2024).

This test concerns the target COVID-19 (nCoV-2019, SARS-CoV2) Mpro (Severe acute respiratory syndrome coronavirus 2, UniProt P0DTD1). The test is described as follows: SARS-CoV2 Mpro enzymatic assay. It is filed as biochemical.

As for `COc1cccc2[nH]c(C(=O)N[C@H](CC3CC3)C(=O)N[C@H](C#N)C[C@@H]3CCC(C)(C)NC3=O)cc12` (single isomer, unassigned; isomer 1) [787A (Isomer 1)], the IC50 is below 2000 nM.

For orientation: IC50 means the concentration that gives 50% inhibition. A lower IC50 goes with greater potency in that assay.
